{"sequences": {"note": "Amino acid sequences for entries named in this document (tags omitted). A change or cut given only in a name is not applied to a line headed by its entry.", "UniProt P41144": "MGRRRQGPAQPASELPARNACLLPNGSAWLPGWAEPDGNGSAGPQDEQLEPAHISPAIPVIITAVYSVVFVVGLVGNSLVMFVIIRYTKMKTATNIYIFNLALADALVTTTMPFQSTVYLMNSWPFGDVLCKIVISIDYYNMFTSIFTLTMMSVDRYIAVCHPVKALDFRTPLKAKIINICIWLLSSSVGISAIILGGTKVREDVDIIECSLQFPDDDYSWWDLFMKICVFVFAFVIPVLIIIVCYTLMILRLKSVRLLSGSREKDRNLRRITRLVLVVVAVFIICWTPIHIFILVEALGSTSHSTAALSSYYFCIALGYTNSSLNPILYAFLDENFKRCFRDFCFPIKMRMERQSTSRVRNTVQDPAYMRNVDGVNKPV"}, "source": "ChEMBL document CHEMBL4406921", "about": "“Discovery of Axelopran (TD-1211): A Peripherally Restricted μ-Opioid Receptor Antagonist” (ACS Med Chem Lett, 2019)", "molecular_target": "Kappa-type opioid receptor (Cavia porcellus, UniProt P41144)", "assay": "Displacement of [3H]-DPN from guinea pig kappa opioid receptor expressed in CHO-K1 cell membranes by radioligand binding assay", "method_in_brief": "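Membranes from CHO-K1 cells stably transfected with human recombinant μ or δ receptor, or guinea pig κ receptor; competition with [3H]-DPN radioligand; affinity reported as pKi.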", "data": [{"compound": "NC(=O)c1cccc([C@H]2C[C@H]3CC[C@@H](C2)N3CCN(CCc2ccccc2)C(=O)CO)c1", "values": [{"measurement": "Ki", "result": 0.794, "unit": "nM"}]}]}
